Measured values taken from ChEMBL document CHEMBL1133627, “4-Anilino-6,7-dialkoxyquinoline-3-carbonitrile inhibitors of epidermal growth factor receptor kinase and their bioisosteric relationship to the 4-anilino-6,7-dialkoxyquinazoline inhibitors” (J Med Chem, 2000).

Chains of the proteins cited; added tags and fusions are not shown. Lines headed by an entry give the natural chain unless they say otherwise; changes in a name come on top.
UniProt P04626: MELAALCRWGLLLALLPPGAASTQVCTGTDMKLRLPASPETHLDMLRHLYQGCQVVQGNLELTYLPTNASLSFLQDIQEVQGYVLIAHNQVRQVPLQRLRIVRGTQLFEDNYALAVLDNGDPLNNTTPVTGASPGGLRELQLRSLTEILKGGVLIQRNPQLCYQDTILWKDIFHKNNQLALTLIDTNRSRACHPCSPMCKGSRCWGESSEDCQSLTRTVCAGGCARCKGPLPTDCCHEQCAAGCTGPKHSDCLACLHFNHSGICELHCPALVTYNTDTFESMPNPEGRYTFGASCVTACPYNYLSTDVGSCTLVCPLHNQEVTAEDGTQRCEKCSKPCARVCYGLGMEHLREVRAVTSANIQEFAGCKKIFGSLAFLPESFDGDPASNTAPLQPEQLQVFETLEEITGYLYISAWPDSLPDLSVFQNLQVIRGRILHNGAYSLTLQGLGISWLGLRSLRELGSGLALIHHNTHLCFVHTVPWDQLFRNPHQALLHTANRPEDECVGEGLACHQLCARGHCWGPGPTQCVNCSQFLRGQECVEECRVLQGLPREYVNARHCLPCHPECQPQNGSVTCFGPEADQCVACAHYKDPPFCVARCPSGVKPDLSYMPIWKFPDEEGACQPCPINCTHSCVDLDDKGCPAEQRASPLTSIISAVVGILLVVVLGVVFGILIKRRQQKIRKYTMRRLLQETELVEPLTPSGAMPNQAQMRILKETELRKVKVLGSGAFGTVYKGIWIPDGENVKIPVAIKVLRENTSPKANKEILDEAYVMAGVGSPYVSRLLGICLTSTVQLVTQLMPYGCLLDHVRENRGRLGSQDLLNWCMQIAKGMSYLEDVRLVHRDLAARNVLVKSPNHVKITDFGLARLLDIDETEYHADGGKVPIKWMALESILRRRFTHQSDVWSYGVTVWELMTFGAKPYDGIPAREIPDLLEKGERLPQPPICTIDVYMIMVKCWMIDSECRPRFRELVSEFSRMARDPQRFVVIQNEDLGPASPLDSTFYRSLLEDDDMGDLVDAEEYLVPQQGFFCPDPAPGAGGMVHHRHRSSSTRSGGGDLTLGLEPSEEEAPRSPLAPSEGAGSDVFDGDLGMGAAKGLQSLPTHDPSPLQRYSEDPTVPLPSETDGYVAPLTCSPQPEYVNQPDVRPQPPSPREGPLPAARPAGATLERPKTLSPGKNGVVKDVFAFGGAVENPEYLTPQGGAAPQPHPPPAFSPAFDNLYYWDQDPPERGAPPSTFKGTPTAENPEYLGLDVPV
UniProt P00533: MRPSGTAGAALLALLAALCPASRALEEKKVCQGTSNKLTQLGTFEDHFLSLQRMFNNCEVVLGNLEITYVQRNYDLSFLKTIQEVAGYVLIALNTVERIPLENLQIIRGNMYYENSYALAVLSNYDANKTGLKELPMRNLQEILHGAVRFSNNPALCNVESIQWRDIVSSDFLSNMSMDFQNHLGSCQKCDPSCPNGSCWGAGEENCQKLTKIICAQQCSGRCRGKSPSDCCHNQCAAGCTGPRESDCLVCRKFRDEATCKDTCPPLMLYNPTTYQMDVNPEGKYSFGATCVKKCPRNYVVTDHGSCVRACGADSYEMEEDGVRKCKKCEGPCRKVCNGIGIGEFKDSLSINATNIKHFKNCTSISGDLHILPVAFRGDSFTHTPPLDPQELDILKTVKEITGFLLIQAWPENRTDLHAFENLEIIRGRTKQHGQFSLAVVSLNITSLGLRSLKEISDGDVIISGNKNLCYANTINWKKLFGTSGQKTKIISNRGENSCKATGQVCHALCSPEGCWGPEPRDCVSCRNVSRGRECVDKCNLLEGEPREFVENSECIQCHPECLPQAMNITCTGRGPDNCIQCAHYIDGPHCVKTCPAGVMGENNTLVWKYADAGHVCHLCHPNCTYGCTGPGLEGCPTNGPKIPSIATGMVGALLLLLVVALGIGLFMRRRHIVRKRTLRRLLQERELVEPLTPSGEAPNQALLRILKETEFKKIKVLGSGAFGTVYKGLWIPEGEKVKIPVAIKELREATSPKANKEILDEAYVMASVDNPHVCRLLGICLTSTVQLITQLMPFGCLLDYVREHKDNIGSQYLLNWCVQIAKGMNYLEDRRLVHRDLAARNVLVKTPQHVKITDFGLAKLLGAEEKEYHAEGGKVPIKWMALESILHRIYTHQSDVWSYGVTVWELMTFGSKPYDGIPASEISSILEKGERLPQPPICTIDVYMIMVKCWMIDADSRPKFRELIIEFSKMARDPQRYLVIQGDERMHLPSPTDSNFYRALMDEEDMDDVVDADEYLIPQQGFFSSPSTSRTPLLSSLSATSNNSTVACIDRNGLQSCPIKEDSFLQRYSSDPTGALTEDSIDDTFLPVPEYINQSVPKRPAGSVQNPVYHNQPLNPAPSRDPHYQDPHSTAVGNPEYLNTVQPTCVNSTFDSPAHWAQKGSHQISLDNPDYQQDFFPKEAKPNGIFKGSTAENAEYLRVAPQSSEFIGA

Legend:
[1] = system: SW-620; test: Concentration needed to inhibit 50% growth of human SW620 (colon carcinoma) cell lines; type: functional, cell-based
[2] = molecular target: Epidermal growth factor receptor and ErbB2 (HER1 and HER2) (Homo sapiens, UniProt P04626+P00533); test: Concentration needed to inhibit the autophosphorylation of the cytoplasmic domain of Epidermal growth factor receptor using DELFIA/time-resolved fluorimetry.; type: protein assay
[3] = system: SK-BR-3; test: Concentration needed to inhibit 50% growth of human SKBr3 (breast carcinoma) cell lines; type: functional, cell-based
[4] = system: A-431; test: Concentration needed to inhibit 50% growth of the human A431 (epidermoid carcinoma) cell lines; type: functional, cell-based

Compound | IC50 [1] | IC50 [2] | IC50 [3] | IC50 [4]
COc1cc2ncc(C#N)c(Nc3ccc(F)c(Cl)c3)c2cc1OC | 2.3 µM | 0.54 µM | 0.47 µM | 0.7 µM
COc1cc2ncc(C#N)c(Nc3cccc(C(F)(F)F)c3)c2cc1OC | – | 1.45 µM | – | –
COc1cc2ncc(C#N)c(Nc3cccc([N+](=O)[O-])c3)c2cc1OC | – | 0.87 µM | – | –
COc1cc2ncc(C#N)c(Nc3ccccc3C(C)C)c2cc1OC | 4.98 µM | 0.36 µM | 16.1 µM | 13.2 µM
COc1cc2ncc(C(N)=O)c(Nc3cccc(Br)c3)c2cc1OC | 9.87 µM | 15.17 µM | 7.78 µM | 4.65 µM
COc1cc2ncc(C#N)c(Nc3cccc(N(C)C)c3)c2cc1OC.Cl | 0.99 µM | 0.85 µM | 0.36 µM | 0.65 µM
COc1cc2ncc(C#N)c(Nc3ccc(F)c(C(F)(F)F)c3)c2cc1OC.Cl | 29.5 µM | 0.16 µM | 0.52 µM | 7.72 µM
COc1cc2ncc(C#N)c(Nc3ccc(Br)cc3)c2cc1OC | 3.76 µM | 6.65 µM | 1.47 µM | 0.76 µM
COc1cc2ncc(C#N)c(Nc3cccc(C(C)=O)c3)c2cc1OC | 6.3 µM | 7.38 µM | 5.12 µM | 7.37 µM
COc1cc2ncc(C#N)c(Nc3cc(Cl)ccc3O)c2cc1OC | – | 17.02 µM | – | –
COc1ccc(Nc2c(C#N)cnc3cc(OC)c(OC)cc23)cc1OC | – | 50.49 µM | – | –
